# Apparent affinities of Ab-14 variants for a coronavirus HR2 peptide

Reference: Li et al. 2023, doi:10.1038/s41467-023-39022-2. File: FLAb, binding data.

Target: peptide PDVDLGDISGINAS, taken from heptad repeat 2 (HR2) of SARS-CoV-2 spike.

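The starting antibody came from a phage panning campaign against this peptide. Designed CDR sequences, proposed from the first random library and measured here. Group labels follow the data file (Ctrl: baseline library sampled from a position-specific scoring matrix, with some repeated check sequences; Rand: our label for a block that the file lists under HC and that is probably the random mutants of the ten best first-round binders; En: ensemble of fine-tuned language models; GP: Gaussian process model; HC: hill climbing; Gen: genetic algorithm; Gibbs: Gibbs sampling; a sequence that several methods proposed may carry one label only). The scFvs were displayed on barcoded MATa yeast, the peptide on MATalpha yeast. After mating in shaken culture at 30 °C for 16 h, diploids were selected and their barcode pairs sequenced. Scores were corrected for input abundance and mapped to Kd with protein pairs of known affinity run in the same pool. There are six technical replicates.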

Each scFv is VH, three GGGGS repeats, VL, as in the parent Ab-14, and differs from it in the CDRs of the light chain only.
VH: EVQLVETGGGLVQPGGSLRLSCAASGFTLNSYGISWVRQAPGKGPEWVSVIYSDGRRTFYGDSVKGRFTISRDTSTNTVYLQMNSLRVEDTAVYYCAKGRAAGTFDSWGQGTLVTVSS
VL: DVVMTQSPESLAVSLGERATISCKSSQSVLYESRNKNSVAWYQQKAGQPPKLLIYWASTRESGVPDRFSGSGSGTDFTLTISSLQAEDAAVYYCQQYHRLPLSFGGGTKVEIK

Variants are written as CDR1, CDR2 and CDR3 of the light chain (limits as in the source). Parent: KSSQSVLYESRNKNSVA, WASTRES, QQYHRLPLS. Values are log10 of the apparent Kd in nM; lower means stronger binding. The mean shown is taken over the replicates in which the pair was detected. An entry "nd" has no value in the source: the pair was not observed among the diploids in any replicate. This suggests poor binding but is not conclusive. A sequence measured in both rounds can read differently, since the two assays cover different ranges.

"mean, log10 nM",seen in,CDR-L1,CDR-L2,CDR-L3,group
2.45,5/6,KSSQSVLYESRNKNSVA,WASTREY,QQYYRLPLS,Ctrl
0.61,6/6,KSSQSVLYDSVNKNSVA,QGSTLES,QQYHRLPLS,Ctrl
-0.12,6/6,KFEQSVLYESRNKNSVA,NASTRLS,QQYHRLPLS,GP_Gen
4.70,1/6,HSSPSVLYESSNKNSVA,NASTRES,VQYHRLPLS,Rand
0.45,6/6,NFSQMVLVGSTLKNSVA,HASTREE,QQYHRLPLI,En_HC
0.40,6/6,KSYISYLYESRNKNSVA,EASTRES,QQYHRLELS,Rand
1.14,6/6,ILSDHAVNQYDEADSIA,DKTENAQ,QQYARLPLS,En_Gibbs
0.01,6/6,QYSQSVLYESRNKNSVA,DANTRES,QQYHRLPLS,Ctrl
1.42,6/6,KFSQSYLIESQNKNPVA,WASTRES,QQYHRLPCS,Ctrl
1.18,5/6,KSSQSCLYESRNKNSVA,AASTRES,QQYHRLPLS,Ctrl
0.76,6/6,KLSVSWLFESIEHNSVA,ERSTRER,QDYNRLPLS,En_HC
1.75,6/6,KSSQSVLMESENKNSVA,WASTRES,QQYHRLPCS,Ctrl
0.85,6/6,TLYGLSMSMSKEKNNVA,EMSTREN,QQYDRLPLI,En_Gen
2.52,2/6,KSSQSVTYESRNKNPVA,SASTRES,QQYSRLPCS,Ctrl
2.22,6/6,KTSQSVLYESRNKNSVA,WASTRES,QQYHELPLS,Ctrl
1.09,3/6,SFSQHTMEEMSSNKAVA,EVTTTMN,QQYAQLPFI,En_Gibbs
0.51,6/6,ASSQSVMGEERNSNSVA,AASTREV,QQYHRLPLS,GP_Gibbs
-0.37,6/6,KLSQSHLYESRMKNSVA,NASTRES,QQYHRLPLS,GP_Gen
1.80,6/6,KSSQSMLSESRNKNSVA,WASTRES,QQYHRLPLS,Ctrl
0.87,5/6,MISQLYNMGSFAINSVA,QASVRNE,QQYDRLPLI,En_Gen
-0.24,6/6,KLPQSVPYESRNKNSVA,NASQRES,QQYHRLPLS,GP_Gen
0.71,6/6,KVSQSVLYESRNKNSVA,DASTRLS,QQYHRLPLS,GP_Gen
0.12,6/6,KSSQSVPYESRNKNSVA,NASTREQ,QQYHRLPLS,GP_Gen
0.63,6/6,MLSDTVMQGMYSRNSVA,QESTRAE,QQYHHLPLS,En_HC
nd,0/6,KLDFLGPYEQRNKNSVA,SASTRCS,QQYHRLPLS,GP_Gibbs
0.53,6/6,KLLQSVLYESRNKNSVA,NASTRES,QQYHRLPLS,GP_Gen
0.12,6/6,KFFQSWLYEQRNVNSVA,NASQRLD,QQYHRLPLS,GP_Gibbs
0.25,6/6,KFDQEWLLESRNKNSVA,HASQRCS,QQYHRLPLS,GP_Gibbs
1.72,3/6,NMQLQVRSGNNNKYNIA,DEMLREY,QQYNRLPLS,En_Gibbs
0.67,6/6,WLSMSVEQQSRNKNAVA,SASTREL,QQYHRLPLS,GP_Gibbs
1.29,1/6,KWSCSQLYDSPNKNSVA,WASTREM,QQYHRLPLS,GP_Gibbs
-0.28,6/6,KCQQSQLYESRNKNAVA,NASTRED,QQYHRLPLS,GP_Gibbs
0.81,6/6,KVEQGVLDESRNKNSVA,WASTRES,QQYHRLPLS,GP_Gibbs
-0.20,6/6,KLEQSTLYESRNKNSVA,EASTRES,QQYHRLPLS,GP_HC
3.12,2/6,KVSQSVWYESRWVNSVA,CASTRFS,QQYHRLPLS,Ctrl
-0.15,6/6,KLPWSTLYESRQKNSVA,NASTRES,QQYHRLPLS,GP_HC
-0.02,6/6,KISQSVLYEFRNLNSVA,NALTRES,QEYHRLPLS,Ctrl
1.80,6/6,KSSQSVLYESRNFNSVA,WASTREA,QQYHRLPLS,Ctrl
0.27,6/6,KFSQAFLYESRNKNSVA,DANTRES,QQYHRLPLS,GP_HC
1.09,6/6,RINIAGMTVDEHYSNVA,AQRLTSE,QQYFRLPLS,En_Gibbs
nd,0/6,KSPQSVLVESRNGNSVA,VASTRES,QQYHRLPLS,Ctrl
-0.28,6/6,KLSQSHDYESRNKNSVA,NASTRES,QQYHRLPLS,GP_Gen
1.20,6/6,KLRQSTLYESRNKNSVA,LASQRES,QQYHRLPLS,GP_HC
nd,0/6,KSSQQVLYESRNKNSVA,WASERES,FQYHRLPLS,Ctrl
0.91,6/6,KLSQYVGGESRNKSSLA,DNSTREA,QQYHRLPLS,En_HC
0.17,6/6,KSSWSYLEESRNKNSVA,EASTRES,QQYHRLPLS,GP_HC
-0.36,6/6,HLSQSVLYESRNKNSVA,NASKRES,QQYHRLPLS,GP_Gen
1.19,6/6,TISNSAQMESHNKNSVA,DLNVRGS,QQYDRLPLS,En_HC
0.83,6/6,HLSDTVMQGSYYRNSVA,QESTRAD,QQYHHLPLS,En_HC
0.25,6/6,SIFYGQERDIKHESSIA,NGMARVK,QQYHRLPLS,En_Gibbs
0.30,6/6,KVSQNVLYESTNKNSVA,DASTRES,QQYHRLPLS,Ctrl
nd,0/6,IVSQLMLWGWHAKNSIA,EAQTRIN,QQYDRLPLM,En_Gen
0.62,6/6,MFSQMTGLGMKASNSVA,QASTRFE,QQYHRLPLV,En_Gen
-0.12,6/6,KFSQSVLYESRNSNSVA,NASTRES,QQYHRLPLS,GP_Gen
1.42,6/6,KVSEFMKGLMMRTDSIA,DNQTRES,QQYDRLPLS,En_Gen
1.52,1/6,YSSQSVLYESRNKNSVA,HASTRES,QQYHCLVLS,Ctrl

The last 7 entries again:

CDR-L1	CDR-L2	CDR-L3	group	mean, log10 nM	seen in
SIFYGQERDIKHESSIA	NGMARVK	QQYHRLPLS	En_Gibbs	0.25	6/6
KVSQNVLYESTNKNSVA	DASTRES	QQYHRLPLS	Ctrl	0.30	6/6
IVSQLMLWGWHAKNSIA	EAQTRIN	QQYDRLPLM	En_Gen	nd	0/6
MFSQMTGLGMKASNSVA	QASTRFE	QQYHRLPLV	En_Gen	0.62	6/6
KFSQSVLYESRNSNSVA	NASTRES	QQYHRLPLS	GP_Gen	-0.12	6/6
KVSEFMKGLMMRTDSIA	DNQTRES	QQYDRLPLS	En_Gen	1.42	6/6
YSSQSVLYESRNKNSVA	HASTRES	QQYHCLVLS	Ctrl	1.52	1/6

The parent sequence was in this pool as ten entries: three were never detected, three once, and four in most replicates, with averages from 0.34 to 2.37. In the paper, a design with two or fewer of six values counts as a poor binder. Background: pairings of all light chain designs with three empty control strains gave a value in 4% of cases (median 2.64, 5th percentile 1.59). Values in that range, when seen in few replicates, are hard to tell from nonspecific mating.